Data on two compounds can be found in article PMC4979595, “Pilot PET Study to Assess the Functional Interplay Between ABCB1 and ABCG2 at the Human Blood–Brain Barrier” (Clinical Pharmacology and Therapeutics, 2016).

Chains of the proteins cited; added tags and fusions are not shown.
UniProt P08183, whole entry: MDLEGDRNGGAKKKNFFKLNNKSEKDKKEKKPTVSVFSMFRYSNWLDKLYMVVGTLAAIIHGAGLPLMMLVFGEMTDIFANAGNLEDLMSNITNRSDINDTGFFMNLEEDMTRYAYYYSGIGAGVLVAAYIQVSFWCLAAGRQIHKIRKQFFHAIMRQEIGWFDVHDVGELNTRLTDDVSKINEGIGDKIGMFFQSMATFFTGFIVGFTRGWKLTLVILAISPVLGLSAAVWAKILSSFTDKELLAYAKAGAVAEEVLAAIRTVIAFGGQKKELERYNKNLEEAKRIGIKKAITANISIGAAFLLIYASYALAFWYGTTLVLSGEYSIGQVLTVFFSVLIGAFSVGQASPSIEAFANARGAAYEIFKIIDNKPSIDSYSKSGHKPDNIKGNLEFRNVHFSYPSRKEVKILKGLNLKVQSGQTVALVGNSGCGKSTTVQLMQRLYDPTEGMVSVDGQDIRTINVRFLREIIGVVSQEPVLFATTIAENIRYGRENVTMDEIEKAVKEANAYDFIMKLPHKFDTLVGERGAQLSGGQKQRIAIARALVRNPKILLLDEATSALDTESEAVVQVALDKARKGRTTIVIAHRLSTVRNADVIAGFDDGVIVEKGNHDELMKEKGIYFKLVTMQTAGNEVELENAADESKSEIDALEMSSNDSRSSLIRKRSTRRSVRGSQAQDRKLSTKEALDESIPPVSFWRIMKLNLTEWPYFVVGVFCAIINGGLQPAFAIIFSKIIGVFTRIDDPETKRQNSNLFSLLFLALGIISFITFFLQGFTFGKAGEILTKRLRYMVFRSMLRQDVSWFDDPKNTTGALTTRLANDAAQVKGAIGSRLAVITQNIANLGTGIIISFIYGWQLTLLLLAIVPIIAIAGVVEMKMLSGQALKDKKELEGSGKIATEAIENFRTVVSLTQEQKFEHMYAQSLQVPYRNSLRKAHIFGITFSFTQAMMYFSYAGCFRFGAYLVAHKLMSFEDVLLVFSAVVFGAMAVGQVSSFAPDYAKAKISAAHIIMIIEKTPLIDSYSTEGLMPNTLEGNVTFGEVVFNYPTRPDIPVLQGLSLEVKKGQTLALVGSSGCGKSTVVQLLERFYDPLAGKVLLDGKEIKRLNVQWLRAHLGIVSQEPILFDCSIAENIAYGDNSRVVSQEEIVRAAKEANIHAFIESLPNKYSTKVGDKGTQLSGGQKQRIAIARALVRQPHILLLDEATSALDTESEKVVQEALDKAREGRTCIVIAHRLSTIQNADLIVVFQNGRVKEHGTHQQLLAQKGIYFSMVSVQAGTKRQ

One data set has as its system Abcb1a/b. The arrangement: method as in PMID 22828996, PMID 23305710. The note with it: transporter knockout mice; cited from earlier work.
The next data set has as its target ABCB1 versus ABCG2 (Homo sapiens, UniProt P08183). Briefly: in vitro. The note with it: mdck, IC50 for inhibition of ABCB1 transport lower than for inhibition of ABCG2 transport.

Turning to `COc1cc2c(cc1OC)CN(CCc1ccc(NC(=O)c3cc(OC)c(OC)cc3NC(=O)c3cnc4ccccc4c3)cc1)CC2` [[^11C]tariquidar], the “increase in brain distribution in Abcb1a/b^(‐/‐) mice as compared with wildtype mice” value in the data set with Abcb1a/b is recorded as 1.9 fold.
Consider `COc1cc2c(cc1OC)CN(CCc1ccc(NC(=O)c3cc(OC)c(OC)cc3NC(=O)c3cnc4ccccc4c3)cc1)CC2` [tariquidar], for which, at ABCB1 versus ABCG2, the selectivity ratio at 120 min came out at 28.
